# “And” between values parts separate entries of the source, which are not always exact repeats. Identical values can stand only once.
# Tests used:
# [1] = test system: S. cerevisiae BY4741, erg3, erg4, erg6; test: Sensitivity of yeast membrane mutants to paraoxon (growth curves); conditions: for Growth rate vs wild-type: 0.5 mM paraoxon; for Growth rate: 0.125 mM paraoxon
# S. cerevisiae W3031A [2] = test: Microarray analysis of yeast gene expression; conditions: 3 mM paraoxon 60 min
# S. cerevisiae BY4741 [3] = test: Promoter-YDsRed biosensor assay; conditions: for YDsRed Fold-induction: 3 mM paraoxon 4.5 h
# S. cerevisiae W3031A [4] = test: Relative and real-time RT-PCR of paraoxon-responsive genes
# S. cerevisiae [5] = test: Effect of paraoxon on S. cerevisiae growth
# S. cerevisiae BY4741 [6] = test: Paraoxon-inducible promoter-YeGFP biosensor assay
# [7] = Whole cell paraoxon hydrolysis, control vs digitonin-permeabilized cells; conditions: yeast cells treated with digitonin
# [8] = Whole cell paraoxon hydrolysis after ethanol pretreatment
# S. cerevisiae [9] = test: Growth and viability of S. cerevisiae harboring pOPD-ESC-URA in ethanol
# [10] = recombinant OPH+ yeast, associated with paraoxon hydrolysis
# [11] = real-time RT-PCR, W3031A pESC-URA (empty plasmid), 3 mM paraoxon
# [12] = real-time RT-PCR, W3031A pOPD-ESC-URA (expressing opd), 3 mM paraoxon
smiles,measurement,setting,value
CCOP(=O)(OCC)Oc1ccc([N+](=O)[O-])cc1,Growth rate vs wild-type,[1]; erg3 or erg4 strains,no difference in the growth rates
same,Growth rate,[1]; erg6,inhibited
same,Growth rate vs wild-type,[1]; erg6,significant decrease in the growth rate
same,Growth rate,[1]; wild-type strain BY4741,no effect
same,"Fold-induction, YGR213C (RTA1)",S. cerevisiae W3031A [2],152.2 fold
same,"Fold-induction, YHR139C (SPS100)",S. cerevisiae W3031A [2],719.1 fold
same,"Fold-induction, YIR017C (MET28)",S. cerevisiae W3031A [2],27.7 fold
same,"Fold-induction, YLL056C",S. cerevisiae W3031A [2],18.5 fold
same,"Fold-induction, YLR346C",S. cerevisiae W3031A [2],69.6 fold
same,"Fold-induction, YOR186W",S. cerevisiae W3031A [2],269.1 fold
same,"Fold-induction, YGL205W (POX1/FOX1)",S. cerevisiae W3031A [2]; [10],6.96 fold
same,"Fold-induction, YGR287C",S. cerevisiae W3031A [2]; [10],3.86 fold
same,"Fold-induction, YHL012W",S. cerevisiae W3031A [2]; [10],3.84 fold
same,"Fold-induction, YJL219W (HXT9)",S. cerevisiae W3031A [2]; [10],3.94 fold
same,YDsRed Fold-induction,"S. cerevisiae BY4741 [3]; control yeast (pESC-URA), pPOX1-F1",0.84 fold
same,YDsRed Fold-induction,"S. cerevisiae BY4741 [3]; control yeast (pESC-URA), pPOX1-F2",0.74 fold
same,YDsRed Fold-induction,"S. cerevisiae BY4741 [3]; control yeast (pESC-URA), pYGR287C-F1",1.41 fold
same,YDsRed Fold-induction,"S. cerevisiae BY4741 [3]; control yeast (pESC-URA), pYGR287C-F2",1.13 fold
same,YDsRed Fold-induction,"S. cerevisiae BY4741 [3]; recombinant OPH+ yeast (pYOPD-URA), pPOX1-F1",3.0 fold
same,YDsRed Fold-induction,"S. cerevisiae BY4741 [3]; recombinant OPH+ yeast (pYOPD-URA), pPOX1-F2",8.3 fold
same,YDsRed Fold-induction,"S. cerevisiae BY4741 [3]; recombinant OPH+ yeast (pYOPD-URA), pYGR287C-F1",2.1 fold
same,YDsRed Fold-induction,"S. cerevisiae BY4741 [3]; recombinant OPH+ yeast (pYOPD-URA), pYGR287C-F2",2.4 fold
same,YDsRed fluorescence induction,"S. cerevisiae BY4741 [3]; time course, recombinant OPH+ harboring pPDX1-F2-YDsRed, 260 min exposure to paraoxon",2.5 fold
same,YGR035C induction,S. cerevisiae W3031A [4]; 0.5 mM paraoxon 60 min,18 fold
same,YLR346C induction,S. cerevisiae W3031A [4]; 0.5 mM paraoxon 60 min,8 fold
same,YGR035C induction,S. cerevisiae W3031A [4]; 1.0 mM paraoxon 60 min,31 fold
same,YLR346C induction,S. cerevisiae W3031A [4]; 1.0 mM paraoxon 60 min,10 fold
same,YGR035C induction,S. cerevisiae W3031A [4]; 2.5 mM paraoxon 7.5 min,98 fold
same,YLR346C induction,S. cerevisiae W3031A [4]; 2.5 mM paraoxon 7.5 min,32 fold
same,"Fold-induction, HXT9, CP",S. cerevisiae W3031A [4]; [11],2.8 fold
same,"Fold-induction, POX1, CP",S. cerevisiae W3031A [4]; [11],0.9 fold
same,"Fold-induction, YGR287C, CP",S. cerevisiae W3031A [4]; [11],2 fold and 1.9 fold
same,"Fold-induction, YHL012W, CP",S. cerevisiae W3031A [4]; [11],0.8 fold
same,"Fold-induction, HXT9, TP",S. cerevisiae W3031A [4]; [12],2.7 fold
same,"Fold-induction, POX1, TP",S. cerevisiae W3031A [4]; [12],2.4 fold
same,"Fold-induction, YGR287C, TP",S. cerevisiae W3031A [4]; [12],9 fold and 9.1 fold
same,"Fold-induction, YHL012W, TP",S. cerevisiae W3031A [4]; [12],1.0 fold
same,"Gene expression of YOR186W, SPS100 and RTA1","S. cerevisiae W3031A [4]; relative RT-PCR, 0.05-1.0 mM paraoxon 60 min",no obvious changes in gene expression
same,S. cerevisiae growth (OD600),S. cerevisiae [5]; 0.5 mM paraoxon,did not significantly inhibit the growth
same,Growth of wild-type and OPH+ cells,"S. cerevisiae [5]; 1 mM paraoxon, S. cerevisiae W3031A",inhibited to a similar extent
same,S. cerevisiae growth (OD600),S. cerevisiae [5]; 4.0 mM paraoxon,prolonged lag phase
same,S. cerevisiae growth (OD600),S. cerevisiae [5]; paraoxon at concentrations higher than 0.5 mM,growth retardation
same,YeGFP fluorescence increase,"S. cerevisiae BY4741 [6]; pYLR346C-F1-YeGFP, 0.1 mM paraoxon 2 h",1.3 fold
same,YeGFP fold-induction,"S. cerevisiae BY4741 [6]; yeast harboring pYGR035C-YeGFP, 3 mM paraoxon 2 h",3 fold
same,YeGFP fold-induction,"S. cerevisiae BY4741 [6]; yeast harboring pYLR346, 15 min exposure to paraoxon",2 fold
same,YeGFP fold-induction,"S. cerevisiae BY4741 [6]; yeast harboring pYLR346C-YeGFP, 3 mM paraoxon 2 h",5 fold
C[C@@H]1CC[C@@]2(OC1)O[C@H]1[C@@H](O)[C@H]3[C@@H]4CC[C@H]5C[C@@H](O[C@@H]6O[C@H](CO)[C@H](O[C@@H]7O[C@H](CO)C(O)[C@H](O[C@@H]8OC[C@@H](O)[C@H](O)[C@H]8O)[C@H]7O[C@@H]7O[C@H](CO)[C@H](O)[C@H](O[C@@H]8O[C@H](CO)[C@@H](O)[C@H](O)[C@H]8O)[C@H]7O)[C@H](O)[C@H]6O)[C@H](O)C[C@]5(C)[C@H]4CC[C@]3(C)[C@H]1[C@@H]2C (stereo partly drawn),Increase of paraoxon hydrolysis compared to control cells,[7],3 to 4 fold
CCO,Fold-increase compared to control cultures,[8]; 2% ethanol pretreatment,1.29 fold
same,Whole cell activity,[8]; 2% ethanol pretreatment 4.5 h,0.36 μmoles paraoxon hydrolyzed/min/10^9 cells
same,Fold-increase compared to control cultures,[8]; 4% ethanol pretreatment,1.46 fold
same,Whole cell activity,[8]; 4% ethanol pretreatment 4.5 h,0.41 μmoles paraoxon hydrolyzed/min/10^9 cells
same,S. cerevisiae growth (OD600),S. cerevisiae [9]; 2 or 4% ethanol,decrease in S. cerevisiae growth rate
same,Viability (trypan blue) vs control,"S. cerevisiae [9]; 4% ethanol, 3.75 h treatment",no difference in the viability
same,S. cerevisiae growth (OD600),S. cerevisiae [9]; 6-8% ethanol,severely inhibited growth

# — patent US8927244B2, “Organophosphorus hydrolase” (dated 2015)
